{"source": "patent US10722578B2", "about": "“Methods and compositions for treating neuroblastoma” (The Children's Hospital of Philadelphia, priority 2008, dated 2020)", "key": {"[1]": {"test_system": "NSCLC patients harboring ALK translocations", "conditions": "cited from earlier work"}, "cell surface ALK": {"test_system": "cell surface ALK", "experiment": "Flow cytometry of cell surface ALK, SY5Y", "format": "cell-based, human", "conditions": "1000 nM"}, "[2]": {"test_system": "ALK tyr1604 phosphorylation", "experiment": "In vitro phosphoprotein detection (immunoblot), phospho-ALK", "conditions": "2 hours with drug"}, "[3]": {"test_system": "ALK and phospho-ALK Tyr 1604", "experiment": "Western blots of ALK and phospho-ALK, SY5Y", "conditions": "72 hours"}, "ALK phosphorylation": {"test_system": "ALK phosphorylation", "conditions": "NB1643 xenografts, 2 days of administration, 4 hours after last oral dose"}}}
{"smiles": "C[C@@H](Oc1cc(-c2cnn(C3CCNCC3)c2)cnc1N)c1c(Cl)ccc(F)c1Cl", "note": "[PF-02341066, crizotinib]", "values": [{"measurement": "Tumor response in patients", "setting": "[1]", "value": "remarkable tumor regression"}, {"measurement": "Time post-treatment at which up-regulation of cell surface ALK was first evident", "setting": "cell surface ALK", "value": "approximately 8 hours"}, {"measurement": "Dose at which abrogation of phospho-ALK occurred", "setting": "[2]; NB1 (WT amplification)", "value": "33 to 100", "unit": "nM"}, {"measurement": "Dose at which abrogation of phospho-ALK occurred", "setting": "[2]; NB1643 (R1275Q)", "value": "33 to 100", "unit": "nM"}, {"measurement": "Total ALK levels", "setting": "[3]; 1000 nM crizotinib alone or with ALK antibody", "value": "Increases in total ALK levels"}, {"measurement": "Levels of phosphorylated ALK", "setting": "[3]; 1000 nM crizotinib alone or with antibody", "value": "substantially diminished"}, {"measurement": "ALK phosphorylation in xenograft protein lysates", "setting": "ALK phosphorylation", "value": "inhibition of ALK phosphorylation"}]}
